# Source: PubChem BioAssay
# In the library only some 2.1% were active in any assay of this set; here they are far more common.
# miR-21 reporter: miR-21 reporter, rising signal | AID 2288 | HeLa miR-21 FLuc reporter, luciferase, 48 h | 340,000 tested, under 10 active | Potency, µM (doses to about 38.3 µM), for inactives: at the top dose reporter change, positive = more light; active = well fitted rising curve with a large enough effect; inconclusive = small, poorly fitted or top-dose-only effect; inactive = no such curve, though single readings can be large or run the other way;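 note: % of control where 0% means no effect; miR-21 action dims this reporter so a rising signal means less miR-21 action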
#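 HeLa miR-21-FLuc reporter line, endogenous miR-21; 2000 cells/well in DMEM/10% FBS; compound titration up to ~40uM final, 48 h, 37 degree Celsius; luciferase detection reagent, 15 min lysis, CCD luminescence.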
# A549 tox-1: kills or reduces viability of A549 cells in Nrf2 counter-screen; A549 ARE-Fluc cells, CellTiter-Fluor viability, 18-24 h; Potency, µM (titrated, usually from 46 µM), without a hit: top-dose activity change, negative = cytotoxicity, usual class: inhibitors; 390,000 compounds, 0.16% hits; further: potency means the concentration at half of the fitted maximal effect; on the % scale 0 is the no-effect control and ±100 the full control effect
#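 Cytotoxicity counterscreen: CellTiter-Fluor fluorescence was measured in A549 ARE_Fluc cells after 18-24 h of compound exposure in a concentration series. The subsequent BugLite luminescent read reports ARE-luciferase activity.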
# Glioma ERSR ind: induces the endoplasmic reticulum stress response in human glioma cells; U87-MG GRP78 promoter luciferase reporter, 16 h; Potency, µM, for the others: at the top dose activation, hits mostly activators; 420,000 compounds, 0.02% hits; further: potency means the concentration at half of the fitted maximal effect; series mostly up to about 76 µM; % of control where 0% means no effect; nearly all actives have a fitted effect of over 35% in size
#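 Stably transfected U87-MG human glioma cells carrying a GRP78-based luminescent sensor were seeded at 1000 cells/well, pin-dosed with compounds and incubated 16 h. Luciferase reagent was then added, and end-point luminescence was read after 10 min at room temperature.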
# Nrf2 activator: activators of Nrf2 (ARE) signaling | Potency, µM (highest dose often 46.1 µM), inactives show at the top dose activation, actives largely listed as activators | 410,000 compounds, 0.31% hits | AREc32 ARE-luciferase reporter (MCF7-derived line), luminescence, 24 h; further: potency means the concentration at half of the fitted maximal effect; % of control where 0% means no effect; nearly all actives have a fitted effect of over 65% in size
#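 AREc32_Fluc, 1000 cells/well, OPTI-MEM + 5% FBS, o/n 37 deg C 5% CO2; 23 nL cpd by pin tool, 24 hr; Steady-Glo 30 min RT, luminescence.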
# TSG101-PTAP inh: blocks PTAP/TSG101 interaction to inhibit HIV-1 budding; 340,000 tested, under 10 active; Potency, µM (series often up to 115 µM), without a hit: top-dose activity change, negative = inhibition, hits mostly inhibitors; Fluorescence polarization, FITC-PTAP peptide / Tsg101 binding; Q99816; active means well fitted inhibition curve with a large enough effect in the main read-out, with a control signal flat, not every such curve was filed as active; inconclusive means small, poorly fitted or top-dose-only effect, or effect the other way, or a change in a side signal; inactive means no such curve, though single readings can be large or run the other way; further: potency means the concentration at half of the fitted maximal effect; % of control where 0% means no effect
#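 FP read-out: FITC-PTAP peptide, 50 nM final, binding Tsg101 binding domain, 10 uM final; 20 min, r.t.; 10 mM HEPES pH 7.5, 0.15 M NaCl, 0.01% Tween 20, 3 mM EDTA, 0.1 mM TCEP.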
# Nrf2 block: Nrf2 pathway inhibition. A549 ARE-Fluc reporter, luciferase luminescence, 18-24 h. Potency, µM (titrated, usually from 46 µM), without a hit: at the highest dose activity change, negative = inhibition, actives largely listed as inhibitors. 360,000 compounds, 2.1% hits; further: potency means the concentration at half of the fitted maximal effect; on the % scale 0 is the no-effect control and ±100 the full control effect; nearly all actives have a fitted effect of over 60% in size
#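 A549 ARE_Fluc cells (5000/well, 5% FBS OPTI-MEM) pre-incubated 2 h, then treated with compounds 18-24 h at 37C/5% CO2 in concentration-response. CellTiter-Fluor viability read first; BugLite luciferase luminescence after 15 min at room temperature gives Nrf2 activity.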
# FLuc counter 3: firefly luciferase inhibition, Nrf2 hit validation. purified firefly luciferase, luminescence inhibition. shares compounds with Nrf2 block. Potency, µM (doses to about 57.5 µM), inactives show top-dose activity change, negative = inhibition, most hits filed as inhibitors. 1,400 compounds, 4% hits; further: potency means the concentration at half of the fitted maximal effect; on the % scale 0 is the no-effect control and ±100 the full control effect; nearly all actives have a fitted effect of over 65% in size
# A549 tox-2: counter-screen for Nrf2 inhibitors: cytotoxicity in A549 ARE cells; shares compounds with Nrf2 block; A549 ARE-Fluc cells, cytotoxicity counterscreen; Potency, µM (titrated, usually from 46.1 µM), inactives show at the top dose activity change, negative = cytotoxicity, most hits filed as inhibitors; 1,400 compounds, 2% hits;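 further: potency means the concentration at half of the fitted maximal effect; cells exposed to compounds for 18 to 24 hours; on the % scale 0 is the no-effect control and ±100 the full control effect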
# ARE-Fluc inh: reduces Nrf2 ARE reporter signal in A549 cells; shares compounds with Nrf2 block; A549 ARE-firefly luciferase reporter, luminescence; Potency, µM (doses to about 46.1 µM), without a hit: top-dose activity change, negative = inhibition, actives largely listed as inhibitors; 1,400 compounds, 74% hits; AID 720524; further: potency means the concentration at half of the fitted maximal effect; on the % scale 0 is the no-effect control and ±100 the full control effect; nearly all actives have a fitted effect of over 65% in size
# * marks the source's active call; other numbers are inactive results; ? = inconclusive; . = not tested or not shown. Unless noted, the call rests on the fitted dose curve; in most records, active means well fitted curve in the direction sought with a large enough effect; inconclusive means small, poorly fitted or top-dose-only effect, or another doubt; inactive means no such curve, though single readings can be large; an effect the other way counts as inactive or inconclusive.
# Letter code: A = miR-21 reporter; B = A549 tox-1; C = Glioma ERSR ind; D = Nrf2 activator; E = TSG101-PTAP inh; F = Nrf2 block; G = FLuc counter 3; H = A549 tox-2; I = ARE-Fluc inh
> CCN1/C(=C/c2cccc[n+]2C)Sc2ccc(OC)cc21
  A: ?; B: -2.5%; C: -2.1%; D: -1.8%; E: -6.1%; F: 5.8µM*; G: -0.8%; H: -28.5%; I: 6.51µM*

> COC(=O)c1c(OCc2ccccn2)cc(=O)n2c1CCN(C(=O)c1n[nH]c3c1CCCC3)CC2
  A: .; B: .; C: -5.5%; D: .; E: .; F: .; G: .; H: .; I: .

> Cc1ccc(NC(=O)CSc2nn(-c3ccccc3)c(=S)s2)cc1S(=O)(=O)N(C)C
  A: 26.8%; B: ?; C: -3.0%; D: 2.1%; E: -1.7%; F: 5.8µM*; G: -14.8%; H: -17.0%; I: 7.31µM*

> Cc1ccc2c(c1)S/C(=C/c1ccc[n+](C)c1)N2CCO
  A: 27.1%; B: -16.5%; C: -4.9%; D: 4.1%; E: -0.4%; F: 2.59µM*; G: -0.4%; H: -17.2%; I: 6.51µM*

> Cc1cccc(NC(=O)Cn2cc(C(=O)C3CCCCC3)c3ccccc32)c1C
  A: 26.5%; B: -23.5%; C: -3.0%; D: -0.2%; E: .; F: 5.8µM*; G: -5.4%; H: -19.0%; I: 5.8µM*

> CC(C)COc1ccc(CC(=O)NO)cc1
  A: .; B: .; C: -1.5%; D: .; E: .; F: .; G: .; H: .; I: .

> CCCCOCCCNc1ncnc2c1[nH]c1ccccc12
  A: 24.1%; B: -12.5%; C: -1.3%; D: 2.2%; E: -2.7%; F: 9.2µM*; G: -27.0%; H: -2.4%; I: 11.6µM*

> O=C(Nc1ccccc1)c1ccc(S(=O)(=O)N2CCOCC2)cc1
  A: -11.7%; B: 6.8%; C: -5.4%; D: 0.2%; E: -0.4%; F: ?; G: .; H: .; I: .

> N#CCc1ccc(NC(=O)c2ccc(CN3CCc4ccccc4C3)cc2)cc1
  A: 13.5%; B: -0.3%; C: 1.5%; D: 4.1%; E: -2.2%; F: 5.17µM*; G: -15.0%; H: 7.0%; I: ?

> O=C(Nc1ccc(S(=O)(=O)N2CCCC2)cc1)c1ccc(CN2CCc3ccccc3C2)cc1
  A: ?; B: -6.9%; C: -3.5%; D: 5.4%; E: -3.1%; F: 1.46µM*; G: -0.1%; H: -15.8%; I: 1.64µM*

> O=C(Nc1ccc(S(=O)(=O)N2CCOCC2)cc1)c1ccc(CN2CCc3ccccc3C2)cc1
  A: ?; B: ?; C: -6.8%; D: 2.5%; E: -2.6%; F: 0.82µM*; G: -1.0%; H: 1.7%; I: 1.64µM*

> O=C(Nc1ccc(Cl)cc1)c1ccc(CN2CCc3ccccc3C2)cc1
  A: -9.9%; B: -9.4%; C: 3.3%; D: 4.6%; E: -0.2%; F: ?; G: .; H: .; I: .

> Brc1cccc[n+]1Cc1ccccc1C[n+]1ccccc1Br
  A: .; B: .; C: -2.1%; D: .; E: .; F: .; G: .; H: .; I: .

> CC(C)CC(=NNC(=O)c1ccncc1)c1cc(Cl)ccc1O
  A: .; B: ?; C: -4.4%; D: 0.3%; E: -2.7%; F: 6.51µM*; G: 1.2%; H: -1.5%; I: 6.51µM*

> Cc1ccccc1C(=O)N1CCN(c2ccc(NC(=O)c3ccc4c(c3)OCO4)cc2)CC1
  A: ?; B: -12.1%; C: -1.1%; D: 0.1%; E: -6.0%; F: 9.2µM*; G: -12.4%; H: -3.6%; I: 7.31µM*

> COc1ccc(NC(=S)NC(=O)/C=C/c2cccs2)cc1
  A: -11.2%; B: -1.5%; C: 3.3%; D: 3.5%; E: -0.7%; F: 15.1%; G: .; H: .; I: .

> O=C(/C=C/c1cccs1)NC(=S)Nc1ccc(S(=O)(=O)Nc2ccccc2C(F)(F)F)cc1
  A: -9.8%; B: -9.6%; C: -2.9%; D: 3.0%; E: -6.9%; F: 8.2µM*; G: -28.5%; H: -8.9%; I: -11.5%

> CC[C@H](C)C(N)C(=O)O (stereo not given in full)
  A: .; B: .; C: -2.0%; D: .; E: .; F: .; G: .; H: .; I: .

> CC(=O)OCC(=O)[C@@]1(O)CC[C@H]2[C@@H]3CCC4=CC(=O)C=C[C@]4(C)[C@H]3[C@@H](O)C[C@@]21C
  A: -28.7%; B: -8.0%; C: -0.2%; D: -0.3%; E: -1.0%; F: 0.0517µM*; G: 0.1%; H: -6.3%; I: 0.0411µM*

> C[C@]12C=CC(=O)C=C1[C@@H](F)C[C@@H]1[C@@H]2[C@@H](O)C[C@@]2(C)[C@H]1CC[C@]2(O)C(=O)CO
  A: .; B: .; C: -3.7%; D: .; E: .; F: .; G: .; H: .; I: .

> CC12CCC(=O)C=C1C(F)CC1C2C(O)CC2(C)C1CCC2(O)C(=O)CO (stereo not given)
  A: .; B: 4.0%; C: 1.8%; D: 1.8%; E: -3.8%; F: 0.058µM*; G: 0.3%; H: -4.6%; I: 0.058µM*

> C[C@]12C=CC(=O)C=C1CCC1C3CC[C@](O)(C(=O)CO)[C@@]3(C)CC3OC312 (stereo not given in full)
  A: -9.8%; B: -1.0%; C: -2.4%; D: -0.4%; E: -15.0%; F: -17.6%; G: .; H: .; I: .

> CC(=O)OCC(=O)[C@@]1(O)CC[C@H]2[C@@H]3CCC4=CC(=O)C=C[C@]4(C)[C@@]3(Cl)[C@@H](Cl)C[C@@]21C
  A: -24.5%; B: ?; C: -1.8%; D: -0.9%; E: -3.6%; F: 8.2µM*; G: 1.9%; H: -6.1%; I: 1.3µM*

> CCCCC(=O)O[C@]1(C(=O)CO)CC[C@H]2[C@@H]3CCC4=CC(=O)CC[C@]4(C)[C@H]3[C@@H](O)C[C@@]21C
  A: -34.6%; B: -8.4%; C: -1.2%; D: -0.1%; E: -1.5%; F: 0.0164µM*; G: -0.7%; H: -13.9%; I: 0.013µM*

> CC(C)C[C@H](NC(=O)[C@H](CC(C)C)NC(=O)[C@@H](Cc1c[nH]c2ccccc12)NC(=O)[C@H](Cc1ccccc1)NC(=O)[C@@H](Cc1c[nH]c2ccccc12)NC(=O)[C@H](CCC(N)=O)NC(=O)[C@H](CCC(N)=O)NC(=O)[C@@H]1CCCN1C(=O)[C@H](CCCCN)NC(=O)[C@@H]1CCCN1C(=O)[C@H](N)CCCN=C(N)N)C(N)=O
  A: .; B: .; C: -5.3%; D: .; E: .; F: .; G: .; H: .; I: .

> COc1cc2nc(N3CCCN(C)CC3)nc(NC3CCN(C)C3)c2cc1OC (stereo not given)
  A: .; B: .; C: -2.7%; D: .; E: .; F: .; G: .; H: .; I: .

> CCC(C(=O)OCC(=O)C1(O)CCC2C3CCC4=CC(=O)CCC4(C)C3C(O)CC21C)C(C)C (stereo not given)
  A: .; B: -2.6%; C: -5.3%; D: -0.4%; E: -4.4%; F: 1.16µM*; G: -0.6%; H: -29.1%; I: .

> C[C@]12CCC(=O)C=C1CCC1C2C(O)C[C@]2(C)C1CC[C@]2(O)C(=O)CO (stereo not given in full)
  A: .; B: .; C: -7.4%; D: .; E: .; F: .; G: .; H: .; I: .

> CC12C=CC(=O)C=C1CCC1C2C(O)CC2(C)C1CCC2(O)C(=O)CO (stereo not given)
  A: .; B: -1.4%; C: -2.7%; D: -0.7%; E: -1.5%; F: 0.058µM*; G: 4.0%; H: -2.9%; I: 0.103µM*

> Cc1ccc2c(c1)CN(C(=O)CC(c1ccccc1)c1ccco1)CC(C)O2 (stereo not given)
  A: .; B: .; C: -4.3%; D: .; E: .; F: .; G: .; H: .; I: .

# Reformatted: 2 of the compounds above.
molecule | miR-21 reporter | A549 tox-1 | Glioma ERSR ind | Nrf2 activator | TSG101-PTAP inh | Nrf2 block | FLuc counter 3 | A549 tox-2 | ARE-Fluc inh
CCC(C(=O)OCC(=O)C1(O)CCC2C3CCC4=CC(=O)CCC4(C)C3C(O)CC21C)C(C)C (stereo not given) | . | -2.6% | -5.3% | -0.4% | -4.4% | 1.16µM* | -0.6% | -29.1% | .
CC(C)C[C@H](NC(=O)[C@H](CC(C)C)NC(=O)[C@@H](Cc1c[nH]c2ccccc12)NC(=O)[C@H](Cc1ccccc1)NC(=O)[C@@H](Cc1c[nH]c2ccccc12)NC(=O)[C@H](CCC(N)=O)NC(=O)[C@H](CCC(N)=O)NC(=O)[C@@H]1CCCN1C(=O)[C@H](CCCCN)NC(=O)[C@@H]1CCCN1C(=O)[C@H](N)CCCN=C(N)N)C(N)=O | . | . | -5.3% | . | . | . | . | . | .
